Measured values from ChEMBL document CHEMBL1148352, “1,2,4-triazolo[4,3-a]quinoxalin-1-one moiety as an attractive scaffold to develop new potent and selective human A3 adenosine receptor antagonists: synthesis, pharmacological, and ligand-receptor modeling studies” (J Med Chem, 2004).

Chains of the proteins cited; added tags and fusions are not shown.
UniProt P28190, whole entry: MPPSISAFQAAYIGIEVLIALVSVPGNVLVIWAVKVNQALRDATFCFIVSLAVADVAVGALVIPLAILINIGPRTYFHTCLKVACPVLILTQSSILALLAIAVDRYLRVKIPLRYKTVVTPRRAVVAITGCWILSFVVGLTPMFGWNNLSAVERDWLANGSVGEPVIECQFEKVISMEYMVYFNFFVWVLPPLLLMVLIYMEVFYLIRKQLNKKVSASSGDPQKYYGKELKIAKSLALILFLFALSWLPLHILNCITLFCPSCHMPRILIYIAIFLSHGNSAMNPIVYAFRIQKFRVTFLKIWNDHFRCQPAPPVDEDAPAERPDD

Columns and labels:
Adenosine receptor A1 = Adenosine receptor A1 (Bos taurus, UniProt P28190)
[1] = test system: Adenosine receptor A2a (Bos taurus); test: Inhibition of [3H]-CGS- 21680 binding to adenosine A2a receptor of bovine striatal membranes

A Ki (Adenosine receptor A1) of 8.7 nM was found for `Nc1ccc(-n2nc3c(=O)[nH]c4ccccc4n3c2=O)cc1` in this work.

An I [1] of 0% was found for `COc1ccc(-n2nc3c(=O)[nH]c4ccccc4n3c2=O)cc1` in this work.
